Literature values, collected in patent publication US20260174880A1.

Key:
PDK1 [1] = target: T1, PDK1 (Homo sapiens, UniProt O15530); details: read-out: AC…; the 35th table; cited from earlier work
PDK1 [2] = target: T1, PDK1; details: cited from earlier work; for T…: the 35th table c7

| Structure (SMILES) | EC50 (PDK1 [1]) [µM] | T… (PDK1 [2]) [kcal/mol] | …H… (PDK1 [2]; the 35th table c9) [%] |
| --- | --- | --- | --- |
| O=C(O)/C=C(/CCc1c[nH]c2ccccc12)c1ccccc1 | 7.6 | 2.60 | 80.8 |
| O=C(O)/C=C(/CCc1ccc(C(F)(F)F)cc1)c1ccccc1 | 7.1 | – | – |
| O=C(O)/C=C(/CCc1ccc(F)cc1)c1ccccc1 | 41 | – | – |
| O=C(O)/C=C(/CCc1cccc(Cl)c1)c1ccccc1 | 9.5 | – | – |
| O=C(O)/C=C(/CCc1ccc(Br)cc1)c1ccccc1 | 9.8 | 3.20 | – |
